The entries are a selection whose mix differs from that of the whole data set. Inconclusive results are not listed. Calls of active or inactive are those of the source. Unless noted, calls follow the shape of the dose curve; as a rule, active = well fitted curve in the direction sought with a large enough effect; inconclusive = small, poorly fitted or top-dose-only effect, or another doubt; inactive = no such curve, though single readings can be large; an effect the other way counts as inactive or inconclusive.
What was measured:
[1] = target: Mitogen-activated protein kinase 10 (Mus musculus) (UniProt Q61831); test: JNK3 AlphaScreen Assay (AID 530; active = well fitted curve in either direction with a large enough effect, not every such curve was filed as active;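 also: kinase came from lysate of stimulated human HepG2 cells; signal reports phosphorylation of biotinylated GST-cJun 1-79 at Ser73 with 10 µM ATP; % is scaled to controls: 0 for no effect and ±100 for the full control effect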); conditions: JNK3 lysate, c-Jun phosphorylation; at 11.4 µM (top of the series) unless noted
Summary of the method: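 Room-temperature AlphaScreen kinase assay; pre-activated HepG2 lysate as JNK3 source, biotin-GST-cJun(1-79) substrate, 10 uM ATP, compound 15 min preincubation.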

[2] = Cell Viability - N2a (AID 540); conditions: N2a mouse neuroblastoma cell viability; at 92.2 µM (top of the series);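 also: cells exposed to compound for 40 h at 37 °C; plate controls were DMSO alone for no effect and tamoxifen control for full effect; nearly all actives have a fitted effect of over 45% in size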
Summary of the method: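 First, 1500 N2a cells per well incubate 5 hr at 37 °C; next, compounds are added and incubated 40 hr at 37 °C; finally CellTiter-Glo is added and luminescence read after 20 min, with AC50 derived by Hill modeling.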

[3] = Cell Viability - HUV-EC-C (AID 542);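 also: potency is read from the fitted curve at half-maximal effect; cells exposed to compound for 40 hours; nearly all actives have a fitted effect of over 35% in size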
Summary of the method: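 Decrease in cellular ATP, quantified by luciferase luminescence, reflects toxicity in normal human vascular endothelial HUV-EC-C cells given compound for 40 hr in complete culture medium. Values are AC50s from concentration-response curves.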

[4] = Cell Viability - H-4-II-E (AID 543);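 also: potency is read from the fitted curve at half-maximal effect; cells exposed to compound for 40 hours; nearly all actives have a fitted effect of over 35% in size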
Summary of the method: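 Here, cytotoxicity is measured in the rat hepatoma line H-4-II-E as loss of intracellular ATP after 40 hr compound treatment, detected by luciferase luminescence.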

[5] = Cell Viability - SH-SY5Y (AID 544);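 also: potency is read from the fitted curve at half-maximal effect; cells exposed to compound for 40 hours; nearly all actives have a fitted effect of over 55% in size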
Summary of the method: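 Cytotoxicity is scored as a concentration-dependent fall in intracellular ATP in human SH-SY5Y cells treated 40 hr in complete culture medium. Potency is expressed as AC50 from a Hill equation fit.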

[6] = Cellular Toxicity (caspase-3) HepG2 (AID 654); conditions: HepG2 caspase-3 activation, luminescence, 0% = DMSO only, 100% = tamoxifen; at 92.2 µM (top of the series);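 also: cells exposed to compound for 16 hours before reading; 0% = DMSO alone and 100% = caspase signal from 100 µM tamoxifen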
Summary of the method: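 qHTS, HepG2, 1500 cells/well, complete medium; cpd 16 h 37 °C; Caspase-Glo 3/7, 20 min RT; lum. Norm: DMSO vs 100 uM tamoxifen; AC50 Hill fit.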

[7] = Cellular Toxicity (caspase-3) Jurkat (AID 655); conditions: Jurkat caspase-3 activation, luminescence, DMSO = 0%, tamoxifen = 100%; at 92.2 µM (top of the series);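 also: cells exposed to compound for 16 h at 37 °C before reading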
Summary of the method: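 Luminescent Caspase-Glo 3/7 read-out (20 min, room temperature) after 16 h compound treatment at 37 C of 5000 Jurkat cells per well. AC50 derived by Hill-equation fitting, scaled between DMSO basal and 100 uM tamoxifen stimulation.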

[8] = Cellular Toxicity (caspase-3) HUV-EC-C (AID 656); conditions: HUV-EC-C cells, caspase-3 activation (apoptosis), vehicle = 0, 100 µM tamoxifen = 100%; at 92.2 µM (top of the series)
Summary of the method: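 Luminescent Caspase-Glo 3/7 readout after 16 h, 37 °C compound exposure of HUV-EC-C endothelial cells, 1000 per well, complete medium. AC50 derived by Hill fitting, with DMSO as baseline and 100 uM tamoxifen as full activation.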

[9] = Cellular Toxicity (caspase-3) BJ (AID 658); conditions: BJ fibroblasts, luminescence, normalized: DMSO 0%, staurosporine 100%; at 91.7 µM (top of the series);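 also: cells exposed to compound for 16 hours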
Summary of the method: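 Readout: Caspase-Glo 3/7 luminescence increase in BJ cells after 16 hr treatment at 37 °C. Staurosporine and tamoxifen served as positive controls; AC50 values came from Hill modelling of data normalized to DMSO and 10 uM staurosporine.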

[10] = Cellular Toxicity (caspase-3) MRC-5 (AID 659); conditions: MRC-5 cells, luminescence, normalized: DMSO 0%, 10 µM staurosporine 100%; at 91.7 µM (top of the series)
Summary of the method: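 Concentration-dependent caspase 3/7 activation is measured in human normal lung fibroblasts (MRC-5) following 16-hour treatment. AC50 values come from standard Hill-equation modeling of luminescence normalized to DMSO and 10 uM staurosporine.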

[11] = Cellular Toxicity (caspase-3) Mesangial (AID 660); conditions: mesangial cells, normalized: DMSO 0%, 100 µM tamoxifen 100%; at 91.7 µM (top of the series);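 also: combined caspase 3 and 7 activity read by Caspase-Glo luminescence; cells exposed to compound for 16 h before the caspase read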
Summary of the method: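 Concentration-response qHTS: compound-induced rise in caspase 3/7 luminescence in human mesangial cells after 16 h, normalized to DMSO and 100 uM tamoxifen controls.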

[12] = Cellular Toxicity (caspase-3) Hek293 (AID 664); conditions: HEK293 caspase-3 activation, DMSO = 0%, 100 µM tamoxifen = 100%; at 92.2 µM (top of the series);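 also: cells exposed to compound for 16 h at 37 °C before readout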
Summary of the method: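 Activation of caspase-3/7 is measured as increased luminescence from cleaved peptide-aminoluciferin substrate in HEK293 cells treated 16 hours at 37 °C. AC50 values come from Hill-equation fits of concentration-response data.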

[13] = Cellular Toxicity (caspase-3) N2a (AID 665); conditions: N2a cells, luminescence, normalized: DMSO 0%, 10 µM staurosporine 100%; at 92.2 µM (top of the series);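 also: compound exposure lasted 16 h at 37 °C before readout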
Summary of the method: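 Plated mouse neuroblastoma N2a cells received titrated compounds for 16 h in complete medium. Caspase activity was then detected with a peptide-aminoluciferin luminescent reagent.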

[14] = Cellular Toxicity (caspase-3) NIH 3T3 (AID 666); conditions: NIH 3T3 caspase-3 activation, apoptosis/toxicity, 0% DMSO, 100% is 100 µM tamoxifen; at 92.2 µM (top of the series);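 also: caspase signal read after 16 h compound exposure; 0% = DMSO basal and 100% = 100 µM tamoxifen stimulation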
Summary of the method: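 Concentration-response qHTS in NIH 3T3 mouse fibroblasts scores caspase-3/7 activation as rising luminescence after 16 hr compound exposure. Signals are scaled between DMSO-only and 100 uM tamoxifen.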

[15] = Cellular Toxicity (caspase-3) Renal Proximal Tubule (AID 667); conditions: renal proximal tubule cells, primary cells freshly taken from rat, solvent-only wells 0%, staurosporine 100%; at 91.7 µM (top of the series);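 also: cells exposed to compound for 16 hours at 37 °C before detection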
Summary of the method: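 Caspase 3/7 activation measured by luminescent aminoluciferin release in primary rat proximal tubule cells after 16 hr compound exposure at 37 °C. AC50 from Hill-fitted concentration-response, scaled between DMSO and 10 uM staurosporine.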

[16] = MultiTox-Fluor Cytotoxicity Assay - LYMP1-001 - Dead Cells (AID 946); conditions: LYMP1-001 lymphoblastoid cells, dead-cell protease fluorescence; at 92.2 µM (top of the series);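 also: 0% = DMSO and 100% = tetraoctylammonium bromide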
Summary of the method: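 In this qHTS, 15 uM tetraoctylammonium bromide defined 100% and DMSO defined basal activity. Lymphoblastoid cells (LYMP1-001, 2500 per well) received compound for 16 hr at 37 C before a fluorogenic dead-cell substrate readout at 485/520 nm.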

[17] = MultiTox-Fluor Cytotoxicity Assay - LYMP1-003 - Live Cells (AID 962); conditions: LYMP1-003 lymphoblastoid cells, MultiTox-Fluor live-cell protease fluorescence; at 92.2 µM (top of the series);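 also: cells exposed to compound for 16 hours at 37 °C; 0% = DMSO only and full loss = 92 µM tetraoctylammonium bromide; cytotoxic hits lower the live-cell protease signal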
Summary of the method: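 Cells plated at 2500 per well and incubated 5 hr; compounds added and incubated 16 hr at 37 C; MultiTox-Fluor reagent added for 60 min at room temperature; fluorescence of liberated AFC measured at 405/510 nm.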

[18] = Cell Viability - LYMP1-003 - Assay at 24 hr (AID 963); conditions: LYMP1-003 lymphoblastoid cell viability; at 92.2 µM (top of the series);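 also: plate controls were DMSO only for no effect and tetraoctylammonium bromide positive control for full effect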
Summary of the method: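 Acute toxicity in LYMP1-003 lymphoblastoid cells: 24 hr compound treatment at 37 C, ATP measured with CellTiter-Glo after 30 min at room temperature. AC50 derived by fitting the Hill equation to qHTS titrations.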

CN(N=O)C(=N)N[N+](=O)[O-]
inactive: activity change, negative = inhibition [1] -3.32% [at 57.1 µM] | caspase-3 activation [6] 5.42% | caspase-3 activation [7] -2.9% | caspase-3 activation [8] 6.76% | caspase-3 activation [9] 2.47% | caspase-3 activation [10] 2.68% | caspase-3 activation [11] 11.8% | caspase-3 activation [12] 1.03% | caspase-3 activation [13] -7.46% | caspase-3 activation [14] 8.21% | caspase-3 activation [15] 7.26% | cytotoxicity (dead cells) [16] 12.1% | activity change, negative = fewer live cells [17] -23.8% | viability change, negative = cytotoxic [18] -20.9%
active: activity change, negative = cytotoxicity [2] -115% | Potency [3] 25.1 µM | Potency [4] 39.8 µM | Potency [5] 12.6 µM

— PubChem BioAssay (NCATS)
